Literature values in publication PMC11747885, “Potent inhibitors of the human RNA ligase Rlig1 highlights its role in RNA integrity maintenance under oxidative cellular stress” (Chemical Science, 2025).
Where “and” joins values, the source holds several entries; their conditions need not be identical. Equal entries are not always repeated.

Conditions: DMSO; ref MedChemExpress; cited from earlier work

## Plicamycin
  solubility: ≥ 100 mg/mL and ≥ 92.15 mM
